Results: ChEMBL document CHEMBL1132775, “N1-(Benzenesulfonyl)tryptamines as novel 5-HT6 antagonists” (Bioorg Med Chem Lett, 2000)

Chains of the proteins cited; added tags and fusions are not shown.
UniProt P50406, whole entry: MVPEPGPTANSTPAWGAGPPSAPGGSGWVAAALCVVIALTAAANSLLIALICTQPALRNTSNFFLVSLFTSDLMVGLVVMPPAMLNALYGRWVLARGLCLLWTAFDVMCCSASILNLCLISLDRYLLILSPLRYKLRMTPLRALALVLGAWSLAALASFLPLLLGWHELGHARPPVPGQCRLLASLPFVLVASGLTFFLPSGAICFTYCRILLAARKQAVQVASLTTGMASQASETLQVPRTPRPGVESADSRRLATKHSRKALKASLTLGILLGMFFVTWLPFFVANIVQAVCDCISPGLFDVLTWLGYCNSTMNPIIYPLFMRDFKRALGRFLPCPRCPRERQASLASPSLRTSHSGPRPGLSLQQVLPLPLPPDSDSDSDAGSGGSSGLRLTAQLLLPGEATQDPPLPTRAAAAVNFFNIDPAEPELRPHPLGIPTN

Molecular target: 5-hydroxytryptamine receptor 6 (Homo sapiens, UniProt P50406)
Assay: Binding affinity against human 5-hydroxytryptamine 6 receptor stably transfected to HEK 293 human embryonic kidney cells using [3H]-lysergic acid diethylamide as radioligand
Type: cell-based, HEK293

`COc1ccc2[nH]cc(CCN(C)C)c2c1` [MEBUFOTENIN] was tested, and the Ki was 16 nM.
